Laboratory results taken from article PMC3669296, “Pulsed Electromagnetic Fields Increased the Anti-Inflammatory Effect of A2A and A3 Adenosine Receptors in Human T/C-28a2 Chondrocytes and hFOB 1.19 Osteoblasts” (PLoS ONE, 2013).

Chains of the proteins cited; added tags and fusions are not shown.
UniProt P0DMS8, whole entry: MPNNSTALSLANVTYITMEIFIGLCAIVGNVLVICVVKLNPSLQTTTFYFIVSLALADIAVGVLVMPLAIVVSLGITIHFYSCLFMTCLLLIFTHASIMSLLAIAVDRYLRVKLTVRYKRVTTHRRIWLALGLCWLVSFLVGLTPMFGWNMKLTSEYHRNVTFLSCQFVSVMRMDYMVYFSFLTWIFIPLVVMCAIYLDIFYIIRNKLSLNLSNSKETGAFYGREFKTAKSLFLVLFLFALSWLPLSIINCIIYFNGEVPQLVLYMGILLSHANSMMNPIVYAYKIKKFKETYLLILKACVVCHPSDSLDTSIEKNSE

Molecular target: T1, A3AR (Homo sapiens, UniProt P0DMS8)
T1 construct: gene ADORA3; native full-length receptor in membranes of human T/C-28a2 chondrocytes
Test: radioligand saturation binding, cell membranes
Conditions: labelled compound, T/C-28a2 membranes, no PEMF, no IL-1β, Tris-HCl […], MgCl2 […], EDTA […], pH […] min, read-out: A3ARs / KD
Text: radioligand saturation binding, cell membranes on A3AR

- Kd: 3.04 ± 0.28 nM
SMILES: CCCn1cc2c(nc(NC(=O)Nc3ccc(OC)cc3)n3nc(-c4ccco4)nc23)n1 [[3H]-MRE 3008F20, 5N-(4-methoxyphenylcarbamoyl) amino-8-propyl-2-(2-furyl) pyrazolo [4,3-e]-1,2,4-triazolo [1,5-c]pyrimidine]
